Measurements as given in ChEMBL document CHEMBL3865790, “2-(Phenylsulfonyl)quinoline N-hydroxyacrylamides as potent anticancer agents inhibiting histone deacetylase” (Eur J Med Chem, 2016).

Biological target: T1, Histone deacetylase 8 (Homo sapiens, UniProt Q9BY41)
T1 sequence (Q9BY41 whole entry): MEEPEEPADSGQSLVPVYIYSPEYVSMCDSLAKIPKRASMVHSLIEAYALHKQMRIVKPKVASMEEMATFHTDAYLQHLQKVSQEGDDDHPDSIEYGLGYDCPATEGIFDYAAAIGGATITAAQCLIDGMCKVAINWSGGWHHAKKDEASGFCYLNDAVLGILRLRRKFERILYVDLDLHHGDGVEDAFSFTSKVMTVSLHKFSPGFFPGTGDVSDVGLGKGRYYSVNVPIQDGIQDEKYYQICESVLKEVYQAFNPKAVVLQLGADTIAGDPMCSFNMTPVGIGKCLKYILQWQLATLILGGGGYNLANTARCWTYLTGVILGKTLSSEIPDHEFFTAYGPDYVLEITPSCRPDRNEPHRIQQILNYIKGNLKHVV
Experiment: Inhibition of His-tagged full length recombinant human HDAC8 expressed in baculovirus expression system assessed as release of 7-amino-4-methylcoumarin by fluorogenic assay

O=C(CCCCCCC(=O)Nc1ccccc1)NO [VORINOSTAT]
IC50: > 300 nM
